From PMC7989030 (Journal of medicinal chemistry, 2020)

Biological target: BRDT BD1 (Homo sapiens, UniProt Q58F21)
Test: TR-FRET binding assay, isolated recombinant BD

With `COc1cc(OC)c2c(=O)cc(-c3cc(C)c(OC[C@@H](O)CN4CCN(C)CC4)c(C)c3)oc2c1` [Compound 43, (S)-2-(4-(2-Hydroxy-3-(4-methylpiperazin-1-yl)propoxy)-3,5-dimethylphenyl)-5,7-dimethoxy-4H-chromen-4-one] as the molecule, how does the IC50 read?
Its IC50 is 2760 ± 237 nM.
